Reference: article PMC5471521, “Novel selective β1-adrenoceptor antagonists for concomitant cardiovascular and respiratory disease” (The FASEB Journal, 2017)

Chains of the proteins cited; added tags and fusions are not shown.
UniProt P08588, whole entry: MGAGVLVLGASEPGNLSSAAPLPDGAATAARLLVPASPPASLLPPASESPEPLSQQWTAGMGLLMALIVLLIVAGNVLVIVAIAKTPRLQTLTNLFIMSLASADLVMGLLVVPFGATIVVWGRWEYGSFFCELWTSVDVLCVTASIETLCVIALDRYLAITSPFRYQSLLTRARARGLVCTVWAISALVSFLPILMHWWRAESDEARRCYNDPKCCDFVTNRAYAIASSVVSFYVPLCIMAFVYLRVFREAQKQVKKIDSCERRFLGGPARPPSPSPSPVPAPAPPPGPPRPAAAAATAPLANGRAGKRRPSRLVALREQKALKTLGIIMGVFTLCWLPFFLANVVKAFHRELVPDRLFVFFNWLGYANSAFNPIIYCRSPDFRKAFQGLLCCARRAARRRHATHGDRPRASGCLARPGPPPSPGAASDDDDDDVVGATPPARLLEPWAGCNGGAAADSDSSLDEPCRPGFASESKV

Biological target: human β1-AR (Homo sapiens, UniProt P08588)
Assay: 3H-CGP12177 whole-cell binding in CHO-β1 cells
Conditions: mean ± SEM

Compound: NC(=O)c1ccc(OCCNC[C@H](O)COc2ccc3c(c2)OC[C@@H](COCC2CC2)O3)cc1 [NDD-713]
- Human β1-AR Log Kd: −7.70 ± 0.04

Compound: O=C1NCc2cc(OCCNC[C@H](O)COc3ccc4c(c3)OC[C@@H](COCC3CC3)O4)ccc21 [NDD-825]
- Human β1-AR Log Kd: −8.17 ± 0.03
